Values of other authors as cited in article PMC2751796 (Pharmacology & therapeutics, 2009).

System: P-gp and BCRP
Conditions: ref Oostendorp et al., 2009; Chen et al., 2008; cited from earlier work

## Cc1ccc(NC(=O)c2ccc(CN3CCN(C)CC3)cc2)cc1Nc1nccc(-c2cccnc2)n1 [Imatinib]
  Increase of brain-to-plasma concentration ratio in triple KO mice: 12-13 fold
